# According to US12303498B2, “ALK5 inhibitors as skeletal muscle hypertrophy inducers” (CYTOO, priority 2018, dated 2025):
# System: Human primary myoblasts (healthy donors 3, 1 and 5)
# Assay: MyoScreen hypertrophy assay on myotubes from healthy donors
# Type: cell-based
# Settings: second dose response assay, healthy Donor 3
smiles,measurement,value
c1ccc(-c2n[nH]cc2-c2ccnc3ccccc23)nc1 [LY 364947],% Activity,132%
